# Experimental data as given in PubChem BioAssay AID588856 (National Center for Advancing Translational Sciences (NCATS), 2011).
# The list shows a part of the results, in another mix than the full data. The source made the active and inactive calls. The call rests on the fitted dose curve; in most records, active means well fitted cell-killing curve with a large enough effect; inactive means no such curve, though single readings can be large or run the other way.
# Experiment: qHTS for Inhibitors of TGF-b: Cytotox Counterscreen
# Details: HepG2 CAGA-GFP viability, ATP luminescence, 18 h; at 46.1 µM (top of the series)
# From the text: TGF-b is a main component in the TGF-b signaling pathway which plays diverse roles in cellular and development pathways. TGF-b is mediated by transcription factors called "Smads". Although the Smad-dependent pathway is the primary canonical TGF-b signaling mode, TGF-b1 can also activate alternative signaling pathways, including those involving MAPK (ERK, JNK and p38). This interaction may mediate or enhance Smad-dependent responses, or can exert Smad-independent effects. The complexity of this signaling cascade allows the TGF-b superfamily to perform unique, overlapping or redundant functions. We believe that targeting the TGF-beta pathway at the Smad-transcription factor level may eliminate the consequences of disrupting the entire pathway and offer specificity without affecting other signaling pathways. Smad3 is the primary transducer of TGF-b's signals and Smad3 regulates many functions attributed to TGF-b signaling. We hypothesize that Smad3 inhibitors will selectively eliminate Smad3-specific TGF-beta signals without undesired off-target effects. We aim to identify Smad3-small molecule antagonists using a quantitative high throughput screening (qHTS) approach.
# A high-throughput assay was developed to screen the NIH Molecular Libraries Small Molecule Repository (MLSMR). This is a cell based assay, where TGF-b is tagged with GFP. This is a counterscreen that evaluates the cytotoxicity of the compounds that were screened in the primary cell-based screen (AID 588855).
# MH087449NIH Chemical Genomics Center [NCGC]
# NIH Molecular Libraries Probe Centers Network [MLPCN]
# Assay Submitter (PI): Sushil Rane, National Institute of […]
# Suspensions of trypsinized HEPG2 CAGA-GFP cells were dispensed into white, tissue culture-treated, solid 1536-well plates at 5uL/well (1000 cells/well final concentration) in DMEM medium supplemented with 1% FBS. Plates were incubated at 37 degrees C for 2 hours, after which 23 nL of compounds or DMSO were delivered to each well using a pin tool. One uL of recombinant TGF-beta in DMEM (1% FBS) was then dispensed (500 pg/mL final concentration), and plates were incubated at 37 degrees C for 18 hours. Two uL of CellTiter Glo (Promega), a luminescence-based viability reagent, was dispensed, followed by a 10 minute room temperature incubation. The plates were then measured on a PerkinElmer ViewLux plate reader for luminescence (clear filter) using a 5 second exposure. The %Activity was determined from the corrected luminescence values. Wells containing media only (no cells) were used to normalize %Activity of identified toxic compounds; media-only wells corresponded to 100%Activity (complete cell-killing), while DMSO-dosed cell controls were used to normalize 0%Activity (no toxicity).
# Concentration-response curves were fitted to the signals arising from the resulting luminescence. The concentration-effect curves were then classified based on curve quality (r2), response magnitude and degree of measured activity, and compounds were subsequently categorized based on their curve class.
row,Compound,"activity change, negative = cytotoxicity"
1,O=C(NCC1(N2CCOCC2)CCCCC1)c1ccccc1[N+](=O)[O-],inactive: -6.8%
2,N#Cc1ccc(C(=O)NCC2(N3CCCCC3)CCCCC2)cc1,inactive: -3.49%
3,O=C(NCC1(N2CCOCC2)CCCCC1)c1ccc([N+](=O)[O-])cc1,inactive: -16.9%
4,CC(C)(C)OC(=O)N1CCC(N(C(=O)c2ccccc2)c2ccc(Cl)cc2)CC1,inactive: 4.03%
5,CCOC(=O)C(CC)C1=NC(C)(C)Cc2ccccc21.O=[N+]([O-])c1cc([N+](=O)[O-])c(O)c([N+](=O)[O-])c1 (centres undefined),inactive: 11.7%
6,CN(C)C1(CNC(=O)c2cccc(C#N)c2)CCCCC1,inactive: 7.2%
7,c1ccc(CN2CCC(Nc3ccccc3)CC2)cc1,inactive: -22.4%
8,Cc1cc(N(CCCl)CCCl)ccc1C=O,inactive: -44.1%
9,O=C(NCC1(N2CCOCC2)CCCCC1)c1ccccc1,inactive: -6.45%
10,O=c1[nH]c2ccccc2n1C1CCN(C(c2ccccc2)c2nnnn2C2CCCC2)CC1 (centres undefined),inactive: -31.8%
11,CCCN1CCC(Nc2cc(OC)cc(OC)c2)CC1,inactive: -7.76%
12,CC(C)(C)n1nnnc1C(c1cccc2ccccc12)N1CCC(n2c(=O)[nH]c3ccccc32)CC1 (centres undefined),inactive: 10.7%
13,CCCCn1nnnc1C(c1ccccc1)N1CCC(n2c(=O)[nH]c3ccccc32)CC1 (centres undefined),inactive: -15%
14,COc1cc(C(=O)NCC2(N3CCOCC3)CCCCC2)cc(OC)c1C,inactive: -12%
15,O=C(NCC1(N2CCOCC2)CCCCC1)c1cc(Br)ccc1Cl,inactive: -0.422%
16,O=c1[nH]c2ccccc2n1C1CCN(C(c2cccs2)c2nnnn2C2CCCCC2)CC1 (centres undefined),inactive: -16.8%
17,O=Cc1ccc(N(CCCl)CCCl)cc1,inactive: -10.3%
18,COc1ccc(C(=O)NCC2(N3CCOCC3)CCCCC2)cc1OC,inactive: -8.09%
19,O=c1[nH]c2ccccc2n1C1CCN(C(c2ccnc3ccccc23)c2nnnn2C2CCCC2)CC1 (centres undefined),inactive: 5.05%
20,COc1cccc(C(c2nnnn2C(C)(C)C)N2CCC(n3c(=O)[nH]c4ccccc43)CC2)c1OC (centres undefined),inactive: 3.32%
21,CCOC(=O)N1CCC(Nc2ccc(C)cc2)CC1,inactive: 7.87%
22,N/C(=N\O)c1c(N)no[n+]1[O-],inactive: -2.24%
23,O=C(OC1CN2CCC1CC2)C1c2ccccc2C=Cc2ccccc21 (centres undefined),inactive: -10.9%
24,CCc1cc(C(=O)NCC2(N3CCCCC3)CCCCC2)sc1C,inactive: -16.8%

row,Compound,"activity change, negative = cytotoxicity"
1,O=C(O)c1cccc(Nc2c([N+](=O)[O-])cc([N+](=O)[O-])cc2[N+](=O)[O-])c1,inactive: -2.07%
2,O=c1[nH]c2ccccc2n1C1CCN(C(c2cccs2)c2nnnn2C2CCCC2)CC1 (centres undefined),inactive: 5.58%
3,CCCCn1nnnc1C(c1cccc(OC)c1OC)N1CCC(n2c(=O)[nH]c3ccccc32)CC1 (centres undefined),inactive: -14.5%
4,CCOc1ncccc1C(=O)NCC1(N2CCOCC2)CCCCC1,inactive: 3.05%
5,CN1CCC(Nc2ccc(F)c(Cl)c2)CC1,inactive: -14.7%
6,CC(C)(C)OC(=O)N1CCC(Nc2ccccc2)CC1,inactive: -20.3%
7,ClCCN(CCCl)c1ccc(C=C2C=CC=C2)cc1,inactive: -0.571%
8,O=C(O)C1(Nc2ccccc2)CCN(Cc2ccccc2)CC1,inactive: -11.3%
9,ClCCN(CCCl)c1ccccc1,inactive: 5.85%
10,CCCOc1ccc(C(=O)NCC2(N(C)C)CCCCC2)cc1,inactive: -17.5%
11,O=c1[nH]c2ccccc2n1C1CCN(C(c2cc3ccccc3o2)c2nnnn2C2CCCC2)CC1 (centres undefined),inactive: -26.2%
12,COc1cccc(C(=O)N(c2cc(C)cc(C)c2)C2CCN(C(=O)OC(C)(C)C)CC2)c1,inactive: 0.389%
13,COc1cccc(C(c2nnnn2C2CCCC2)N2CCC(n3c(=O)[nH]c4ccccc43)CC2)c1OC (centres undefined),inactive: -2.1%
14,COc1cc(OC)cc(C(=O)NCC2(N3CCOCC3)CCCCC2)c1,inactive: 6.15%
15,COc1cc(C(=O)NCC2(N3CCOCC3)CCCCC2)cc(OC)c1OC,inactive: -4.11%
16,CCC(CO)(C(=O)OC1CN2CCC1CC2)c1ccccc1 (centres undefined),inactive: -56.5%
17,CN1CCC(Nc2ccc(Cl)cc2)CC1,inactive: 3.5%
18,CC(=O)N(c1ccccc1)C1CCNCC1,inactive: -2.2%
19,COc1cccc(C(c2nnnn2C2CCCCC2)N2CCC(n3c(=O)[nH]c4ccccc43)CC2)c1OC (centres undefined),inactive: 5.01%
20,CN(C)C1(CNC(=O)c2ccc(C(C)(C)C)cc2)CCCCC1,inactive: -16%
21,CCC(c1nnnn1C1CCCCC1)N1CCC(n2c(=O)[nH]c3ccccc32)CC1 (centres undefined),inactive: -0.453%
22,O=c1[nH]c2ccccc2n1C1CCN(C(c2ccnc3ccccc23)c2nnnn2C2CCCCC2)CC1 (centres undefined),inactive: 3.97%
23,COc1cc(OC)cc(C(=O)NCC2(N3CCCCC3)CCCCC2)c1,inactive: -12.4%
24,Cc1ccc(C(=O)NCC2(N3CCCCC3)CCCCC2)o1,inactive: -1.97%

row,Compound,"activity change, negative = cytotoxicity"
1,Cc1ccc(Nc2c([N+](=O)[O-])cc([N+](=O)[O-])cc2[N+](=O)[O-])cc1,inactive: -117%
2,Fc1ccccc1NC1CCN(Cc2ccccc2)CC1,inactive: 23.4%
3,Cc1ccc(NC2(C#N)CCN(Cc3ccccc3)CC2)cc1,inactive: -5.09%
4,Cc1ccccc1NC1(C#N)CCN(Cc2ccccc2)CC1,inactive: 9.29%
5,CC(C)(C)n1nnnc1C(c1ccnc2ccccc12)N1CCC(n2c(=O)[nH]c3ccccc32)CC1 (centres undefined),inactive: -3.14%
6,CCN1CCC(Nc2cccc(F)c2)CC1,inactive: 12.6%
7,COc1ccc(C(c2nnnn2C2CCCCC2)N2CCC(n3c(=O)[nH]c4ccccc43)CC2)cc1 (centres undefined),inactive: -4.76%
8,Cc1ccccc1C(=O)NCC1(N(C)C)CCCCC1,inactive: -5.54%
9,CC(C)(C)c1ccc(C(=O)NCC2(N3CCOCC3)CCCCC2)cc1,inactive: -25.5%
10,O=C(NCC1(N2CCCCC2)CCCCC1)c1ccco1,inactive: 5.85%
11,Cn1c(=O)[nH]cc(N(CCCl)CCCl)c1=O,inactive: -0.876%
12,CN(C)c1ccc(C(=O)NCC2(N3CCCCC3)CCCCC2)cc1,inactive: -30.9%
13,CC(C)(C)n1nnnc1C(c1ccccc1)N1CCC(n2c(=O)[nH]c3ccccc32)CC1 (centres undefined),inactive: 3.36%
14,O=C(NCC1(N2CCOCC2)CCCCC1)c1ccc(Cl)cc1,inactive: -9.88%
15,O=C1CCN(Cc2ccccc2)CC1,inactive: -3.84%
16,CCOc1ccc(C)cc1CN(CCCl)CCCl,inactive: -12.5%
17,COc1ccccc1C(=O)NCC1(N2CCOCC2)CCCCC1,inactive: -13.2%
18,O=C(NCC1(N2CCCCC2)CCCCC1)c1ccc(F)cc1,inactive: -76.3%
19,CCCCOc1ccc(C(=O)NCC2(N3CCOCC3)CCCCC2)cc1,inactive: -19.2%
20,O=P1(N(CCCl)CCCl)SCCCS1,inactive: 5.95%
21,CCCCn1nnnc1C(c1cc2ccccc2o1)N1CCC(n2c(=O)[nH]c3ccccc32)CC1 (centres undefined),inactive: -2.72%
22,CCOC(=O)N1CCC(Nc2ccc(F)cc2)CC1,inactive: 6.65%
23,COc1ccc(NC2CCN(CCc3ccccc3)CC2)c(OC)c1,inactive: -18.3%
24,O=c1[nH]c2ccccc2n1C1CCN(C(c2ccccc2)c2nnnn2C2CCCCC2)CC1 (centres undefined),inactive: 0.764%

row,Compound,"activity change, negative = cytotoxicity"
1,COc1cc(C(=O)NCC2(N(C)C)CCCCC2)ccc1OC(F)F,inactive: -17.1%
2,CCOC(=O)N1CCC(Nc2cccc(C)c2)CC1,inactive: -19.7%
3,O=c1[nH]c2ccccc2n1C1CCN(C(c2cccc3ccccc23)c2nnnn2C2CCCC2)CC1 (centres undefined),inactive: -0.587%
4,COc1ccc(C(=O)NCC2(N3CCCCC3)CCCCC2)cc1,inactive: -4.89%
5,CCC(c1nnnn1C1CCCC1)N1CCC(n2c(=O)[nH]c3ccccc32)CC1 (centres undefined),inactive: -0.879%
6,CC(C)(C)OC(=O)N1CCC(N(C(=O)c2ccccc2)c2ccc(F)cc2)CC1,inactive: 7.93%
7,COc1ccc(C(=O)NCC2(N3CCCCC3)CCCCC2)c(OC)c1OC,inactive: 0.481%
8,O=C(NCC1(N2CCCCC2)CCCCC1)c1ccc(=O)[nH]c1,inactive: 6.49%
9,CCCCn1nnnc1C(c1cccs1)N1CCC(n2c(=O)[nH]c3ccccc32)CC1 (centres undefined),inactive: -12.2%
10,O=C(NCC1(N2CCCCC2)CCCCC1)c1cccs1,inactive: 28.4%
11,CCCCn1nnnc1C(CC)N1CCC(n2c(=O)[nH]c3ccccc32)CC1 (centres undefined),inactive: 5.96%
12,CSc1ccccc1C(=O)NCC1(N2CCCCC2)CCCCC1,inactive: -25.4%
13,Cc1cccc(NC2(C#N)CCN(Cc3ccccc3)CC2)c1,inactive: -2.22%
14,O=c1[nH]c2ccccc2n1C1CCN(C(c2ccccc2OC(F)(F)F)c2nnnn2C2CCCCC2)CC1 (centres undefined),inactive: -14.5%
15,O=C(NCC1(N2CCCCC2)CCCCC1)c1ccc(Cl)nc1,inactive: 9.57%
16,Cc1cc(C)cc(N(C(=O)c2ccccc2)C2CCN(C(=O)OC(C)(C)C)CC2)c1,inactive: -21.2%
17,O=C(NCC1(N2CCOCC2)CCCCC1)c1cc2ccccc2o1,inactive: -30.5%
18,O=c1[nH]c2ccccc2n1C1CCN(C(c2cc3ccccc3o2)c2nnnn2C2CCCCC2)CC1 (centres undefined),inactive: -1.17%
19,O=C(OC1CN2CCC1CC2)C1c2ccccc2Oc2ccccc21 (centres undefined),inactive: -7.94%
20,N#CC1(Nc2ccccc2)CCN(Cc2ccccc2)CC1,inactive: -28.6%
21,O=C(NCC1(N2CCCCC2)CCCCC1)c1ccc(Cl)s1,inactive: -13.8%
22,O=C1C(O)=C([N+](=O)[O-])C(=O)C(O)=C1[N+](=O)[O-],inactive: 23.5%
